From ChEMBL document CHEMBL1127907, “Design of a potent 5-HT4 receptor agonist with nanomolar affinity” (Bioorg Med Chem Lett, 1994)

Amino acid sequences for entries named in this document (tags omitted). A change or cut given only in a name is not applied to a line headed by its entry.
UniProt Q62758: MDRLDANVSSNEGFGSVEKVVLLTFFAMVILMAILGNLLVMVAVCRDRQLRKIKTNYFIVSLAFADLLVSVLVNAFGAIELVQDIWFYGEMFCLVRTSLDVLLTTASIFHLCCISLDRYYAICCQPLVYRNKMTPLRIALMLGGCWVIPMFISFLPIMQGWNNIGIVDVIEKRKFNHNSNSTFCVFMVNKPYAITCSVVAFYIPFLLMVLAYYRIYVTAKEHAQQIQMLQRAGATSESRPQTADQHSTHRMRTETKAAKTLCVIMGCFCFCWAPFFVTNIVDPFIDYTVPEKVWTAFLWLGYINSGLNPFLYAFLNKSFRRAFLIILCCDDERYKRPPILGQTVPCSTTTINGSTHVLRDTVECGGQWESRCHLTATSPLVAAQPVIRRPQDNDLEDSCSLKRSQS

Columns and labels:
[1] = biological target: T1, 5-hydroxytryptamine receptor 4 (Rattus norvegicus, UniProt Q62758); assay: Binding affinity against 5-hydroxytryptamine 4 receptor using [3H]GR-113808 as radioligand in rat striatum; format: tissue-based
[2] = biological target: T1, 5-hydroxytryptamine receptor 4; assay: 5-hydroxytryptamine 4 receptor agonist activity was determined by the relaxation of the carbachol-contracted rat esophageal tunica muscularis mucosae; format: functional

Compound	Ki [1] [µM]	IC50 [2] [µM]
CCN(CC)CCNC(=O)c1cc(Cl)c(N)cc1OC [METOCLOPRAMIDE]	0.975	
NCCc1c[nH]c2ccc(O)cc12 [SEROTONIN]		0.0037
